In the assay the target is Mitogen-activated protein kinase kinase kinase 14 (Homo sapiens, UniProt Q99558). The experiment in a line: Inhibition Assay: The ability of the nuclear factor-kappa B (NF-kB)-inducing kinase (NIK) to catalyze the hydrolysis of adenosine-5'-triphosphate (ATP) was monitored using the Transcreener ADP (adenosine-5'-diphosphate) assay (BellBrook Labs). Purified NIK (0.2-1 nM) derived from a baculovirus-infected insect cell expression system was incubated with test compounds for 1-3.5 hours in 50 mM 2-[4-(2-hydroxyethyl)piperazin-1-yl]ethanesulfonic acid buffer (pH 7.2) containing 10 mM MgCl2, 2 mM dithiothreitol, 10 uM ATP, 0.01% Triton X-100, 0.1% gamma-globulins from bovine blood, 1% dimethylsulfoxide (DMSO), 12 ug/mL ADP antibody and 4 nM ADP-AlexaFluor.RTM. […] Reactions were quenched by the addition of 20 mM 2,2',2'',2'''-(ethane-1,2-diyldinitrilo)tetraacetic acid and 0.01% Brij 35. The tracer bound to the antibody was displaced by the ADP generated during the NIK reaction, which causes a decrease in fluorescence polarization that was measured by laser excitation. On the technique in general: Fluorescence polarisation rises when a labelled molecule tumbles more slowly, as on binding a larger partner.

The chains behind the UniProt entries cited, without tags or fusion partners. Where a name states a change or a piece, a line headed by the entry shows the natural chain unless it says otherwise.
UniProt Q99558: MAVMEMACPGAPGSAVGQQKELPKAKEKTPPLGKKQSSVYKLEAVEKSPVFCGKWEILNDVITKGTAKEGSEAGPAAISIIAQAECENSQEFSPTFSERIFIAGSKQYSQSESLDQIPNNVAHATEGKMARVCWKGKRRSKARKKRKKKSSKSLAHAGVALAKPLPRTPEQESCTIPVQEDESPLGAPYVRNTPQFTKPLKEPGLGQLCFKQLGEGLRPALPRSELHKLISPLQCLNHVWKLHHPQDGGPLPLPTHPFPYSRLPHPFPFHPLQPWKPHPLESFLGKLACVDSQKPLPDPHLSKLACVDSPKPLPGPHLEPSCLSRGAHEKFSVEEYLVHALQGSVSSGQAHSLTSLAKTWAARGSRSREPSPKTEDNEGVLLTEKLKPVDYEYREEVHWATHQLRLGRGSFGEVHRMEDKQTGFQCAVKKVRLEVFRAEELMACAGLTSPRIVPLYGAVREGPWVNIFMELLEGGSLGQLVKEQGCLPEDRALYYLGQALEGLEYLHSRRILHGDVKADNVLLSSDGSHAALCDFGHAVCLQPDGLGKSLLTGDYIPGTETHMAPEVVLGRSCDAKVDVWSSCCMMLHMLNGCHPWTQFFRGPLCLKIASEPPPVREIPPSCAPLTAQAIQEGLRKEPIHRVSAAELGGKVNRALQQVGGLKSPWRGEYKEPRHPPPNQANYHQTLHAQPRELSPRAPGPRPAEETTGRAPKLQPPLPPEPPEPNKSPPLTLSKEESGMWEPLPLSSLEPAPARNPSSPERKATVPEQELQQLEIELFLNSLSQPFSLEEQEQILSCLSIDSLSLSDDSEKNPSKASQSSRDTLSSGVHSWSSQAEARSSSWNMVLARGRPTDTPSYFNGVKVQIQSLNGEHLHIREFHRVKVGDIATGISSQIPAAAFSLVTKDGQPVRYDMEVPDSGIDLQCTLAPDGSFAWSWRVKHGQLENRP

With `CC(C)(O)C#Cc1ccc2c(c1)-c1nc(C(N)=O)c(C#CC(C)(C)O)n1CCO2`, the Ki – broadly, the dissociation constant of the complex between target and ligand, obtained from inhibition or displacement – was found to be 289 nM.
The same measure for `CNC(=O)c1c(C(N)=O)nc2n1CCOc1ccc(C#CC(C)(O)COC)cc1-2` (configuration not stated): 7 nM.

Source of the values: ChEMBL document CHEMBL3638554 (2015).
